Measured values published in patent publication US8980581B2, “Site-specific incorporation of amino acids into molecules” (California Institute of Technology, priority 2006, dated 2015).

Chains of the proteins cited; added tags and fusions are not shown.
UniProt P15625, whole entry T415G: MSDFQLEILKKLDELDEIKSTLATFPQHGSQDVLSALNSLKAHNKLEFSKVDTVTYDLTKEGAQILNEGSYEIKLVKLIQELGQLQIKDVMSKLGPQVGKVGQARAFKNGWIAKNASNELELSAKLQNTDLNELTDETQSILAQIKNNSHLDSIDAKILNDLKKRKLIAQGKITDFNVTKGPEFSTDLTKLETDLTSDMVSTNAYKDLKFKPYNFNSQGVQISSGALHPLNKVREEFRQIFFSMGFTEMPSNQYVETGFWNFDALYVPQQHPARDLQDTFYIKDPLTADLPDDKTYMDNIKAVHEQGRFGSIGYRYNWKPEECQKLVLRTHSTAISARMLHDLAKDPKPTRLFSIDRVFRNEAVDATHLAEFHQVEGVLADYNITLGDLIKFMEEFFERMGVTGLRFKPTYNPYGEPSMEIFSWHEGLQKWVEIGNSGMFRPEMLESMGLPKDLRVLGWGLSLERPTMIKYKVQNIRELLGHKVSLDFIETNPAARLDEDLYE
UniProt P15624, whole entry partner: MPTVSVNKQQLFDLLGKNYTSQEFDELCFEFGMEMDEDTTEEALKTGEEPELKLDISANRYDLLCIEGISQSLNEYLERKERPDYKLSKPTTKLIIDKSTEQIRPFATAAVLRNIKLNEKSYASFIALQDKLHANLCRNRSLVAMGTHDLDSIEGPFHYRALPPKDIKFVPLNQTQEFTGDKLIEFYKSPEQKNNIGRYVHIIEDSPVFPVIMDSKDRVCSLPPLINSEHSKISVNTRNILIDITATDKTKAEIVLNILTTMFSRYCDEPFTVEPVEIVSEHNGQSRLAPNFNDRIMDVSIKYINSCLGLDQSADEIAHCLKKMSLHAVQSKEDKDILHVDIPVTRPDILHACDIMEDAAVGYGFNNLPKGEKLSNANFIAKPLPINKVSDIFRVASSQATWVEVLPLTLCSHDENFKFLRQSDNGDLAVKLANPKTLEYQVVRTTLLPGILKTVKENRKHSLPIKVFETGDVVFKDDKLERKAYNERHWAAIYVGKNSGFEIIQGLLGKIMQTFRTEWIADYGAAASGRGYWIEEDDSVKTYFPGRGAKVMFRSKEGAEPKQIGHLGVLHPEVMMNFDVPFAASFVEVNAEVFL

Molecular target: external mutant yeast PheRS T415G (Saccharomyces cerevisiae, UniProt P15625, T415G)
Test: ATP-PPi exchange of exemplary amino acids (1-11) by external mutant yeast PheRS, Example 10, Table I
Assay type: biochemical
Settings: enzyme T415G
Procedure: The amino acid-dependent ATP-PP; exchange reaction was used to evaluate the activation of amino acid analogs by yPheRS as described in the above Examples. Briefly, a 200 microliter aliquot of reaction buffer contains 50 mM HEPES (pH 7.6), 20 nM MgCl2, 1 mM DTT, 2 mM ATP, and 2 mM ^32P-pyrophosphate (PPi) with specific activity of 10-50 Ci/mol. Depending on the activity of analogs by the synthetase, the amino acid concentration varied from 10 microM to 2.5 mM and enzyme concentration varied from 10 nM to 100 nM. Aliquots of 20 microliters were removed from the reaction solution at various time points and quenched into 500 microliters of buffer solution containing 200 mN NaPPi, 7% w/v HclO4, and 3% w/v activated charcoal. The charcoal was spun down and washed twice with 500 microliters of 10 mM NaPP; and 0.5% HClO4 solution. The radio-labeled ATP absorbed into the charcoal was quantified via liquid scintillation methods. The specificity constants were calculated by non linear regression fit for the data to a Michaelis Menten model.
The results of the kinetic parameters are shown in Table I. Substitution at the indole ring (especially at the 6th position) was highly favorable for some analogs (8-10).
Where the amino acids are indicated as in FIG. 2.

Row | Structure (SMILES) | Km [µM] | kcat [s⁻¹]
1 | NC(Cc1c[nH]c2ccccc12)C(=O)O (centres unmarked) | 20 | 0.30 ± 0.006
2 | NC(Cc1ccc2ccccc2c1)C(=O)O (centres unmarked) | 27 | 0.04 ± 0.001
3 | NC(Cc1c[nH]c2ccc(Br)cc12)C(=O)O (centres unmarked) | 31 | 0.06 ± 0.005
4 | NC(Cc1ccc(I)cc1)C(=O)O (centres unmarked) | 12 | 0.05 ± 0.001
5 | NC(Cc1c[nH]c2cc(Cl)ccc12)C(=O)O (centres unmarked) | 20 | 0.20 ± 0.018
6 | [N-]=[N+]=Nc1ccc(CC(N)C(=O)O)cc1 (centres unmarked) | 11 | 0.05 ± 0.002
7 | NC(Cc1ccc(O)cc1)C(=O)O (centres unmarked) | 757 | 0.4 ± 0.003
8 | NC(Cc1cccc2ccccc12)C(=O)O (centres unmarked) | 94 | 0.05 ± 0.006
9 | NC(Cc1ccc(Br)cc1)C(=O)O (centres unmarked) | 22 | 0.03 ± 0.001
10 | NC(Cc1c[nH]c2cc(Br)ccc12)C(=O)O (centres unmarked) | 8 | 0.55 ± 0.097
